Earlier results in patent publication US20230330042A1 (published 2023).

By UniProt entry, the sequences of proteins in these tests, tags left out. Where a name states a change or a piece, a line headed by the entry shows the natural chain unless it says otherwise.
UniProt P35372, whole entry, species assumed: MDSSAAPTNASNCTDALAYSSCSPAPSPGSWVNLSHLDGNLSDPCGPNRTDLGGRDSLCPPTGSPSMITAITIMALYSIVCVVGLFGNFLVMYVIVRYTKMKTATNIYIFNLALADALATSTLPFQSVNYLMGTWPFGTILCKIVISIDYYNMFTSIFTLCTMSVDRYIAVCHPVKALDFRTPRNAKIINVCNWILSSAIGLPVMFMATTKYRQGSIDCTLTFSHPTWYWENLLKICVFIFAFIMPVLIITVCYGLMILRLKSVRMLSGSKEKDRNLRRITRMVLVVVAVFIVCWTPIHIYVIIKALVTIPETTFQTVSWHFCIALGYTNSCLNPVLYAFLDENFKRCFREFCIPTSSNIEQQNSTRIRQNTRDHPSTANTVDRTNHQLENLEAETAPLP
UniProt P41145: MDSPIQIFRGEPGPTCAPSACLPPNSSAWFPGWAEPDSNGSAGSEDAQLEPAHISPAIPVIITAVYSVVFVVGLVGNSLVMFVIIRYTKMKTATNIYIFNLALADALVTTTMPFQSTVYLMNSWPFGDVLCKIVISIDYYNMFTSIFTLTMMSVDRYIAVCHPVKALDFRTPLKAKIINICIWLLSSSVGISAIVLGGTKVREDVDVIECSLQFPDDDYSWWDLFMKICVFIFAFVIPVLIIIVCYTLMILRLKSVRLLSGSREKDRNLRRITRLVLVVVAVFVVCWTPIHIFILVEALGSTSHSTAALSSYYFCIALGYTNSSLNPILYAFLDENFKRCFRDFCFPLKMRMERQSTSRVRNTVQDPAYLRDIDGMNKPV

Key:
μ-opioid receptor = μ-opioid receptor (Homo sapiens, UniProt P35372); details: read-out: Ki μ
κ-opioid receptor = κ-opioid receptor (Homo sapiens, UniProt P41145); details: read-out: Ki κ

SMILES	Ki (μ-opioid receptor) [nM]	Ki (κ-opioid receptor) [nM]
CN(C)CC1CCCCC1(O)c1cccc(O)c1 (racemic) [(±)-M1, O-desmethyltramadol]	12.1	–
CN(C)CC1CCCCC1(O)c1cccc(O)c1 (single isomer, unassigned; (-)) [(−)-M1]	428	–
COc1ccc2c3c1O[C@H]1[C@@H](O)C=C[C@H]4[C@@H](C2)N(C)CC[C@@]341 [Codeine]	–	5970
CN(C)CC1CCCCC1(O)c1cccc(O)c1 (single isomer, unassigned; (+)) [(+)-M1]	6.02	–
